Measured values taken from PubChem BioAssay AID707 (Columbia University Molecular Screening Center, 2007).
This is a selection; strong and weak results do not stand in their true shares. Activity calls are given as the source filed them. Cut-off read from the data, not from the text of the source: active = inhibition above about 80%; inactive = the rest.

Protein sequences, listed by entry. Tags and fused reporters are not part of them.
UniProt P34913, whole entry: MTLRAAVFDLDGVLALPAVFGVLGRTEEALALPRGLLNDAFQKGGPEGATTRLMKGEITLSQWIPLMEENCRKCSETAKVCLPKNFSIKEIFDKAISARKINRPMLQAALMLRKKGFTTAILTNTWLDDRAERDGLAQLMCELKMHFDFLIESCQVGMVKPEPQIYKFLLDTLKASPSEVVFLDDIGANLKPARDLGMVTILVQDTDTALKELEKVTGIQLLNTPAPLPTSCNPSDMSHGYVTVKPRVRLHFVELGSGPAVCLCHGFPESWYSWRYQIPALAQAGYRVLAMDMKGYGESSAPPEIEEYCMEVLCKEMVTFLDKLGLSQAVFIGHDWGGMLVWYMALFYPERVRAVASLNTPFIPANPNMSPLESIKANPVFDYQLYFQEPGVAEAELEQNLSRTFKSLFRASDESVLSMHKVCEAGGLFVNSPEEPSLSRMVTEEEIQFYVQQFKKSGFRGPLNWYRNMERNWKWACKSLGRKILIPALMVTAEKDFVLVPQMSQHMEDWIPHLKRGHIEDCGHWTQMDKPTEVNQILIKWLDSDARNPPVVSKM

Each compound was assayed against Bifunctional epoxide hydrolase 2 (Homo sapiens) (UniProt P34913) (assay: sEH enzyme activity blockers – biochemical, human sEH, primary screen (AID 707)). Settings: recombinant human sEH enzymatic activity assay; at 2 µM; hits give high values.

SMILES	inhibition
N/C(=N\O)c1c(N)no[n+]1[O-]	inactive: -6.2%
c1ccc(CN2CCC(Nc3ccccc3)CC2)cc1	inactive: 1.6%
CCC(CO)(C(=O)OC1CN2CCC1CC2)c1ccccc1 (stereo not drawn)	inactive: -0.3%
CCOc1ncccc1C(=O)NCC1(N2CCOCC2)CCCCC1	inactive: -3.2%
O=C(OC1CN2CCC1CC2)C1c2ccccc2Oc2ccccc21 (stereo not drawn)	inactive: -8.1%
O=C(NCC1(N2CCOCC2)CCCCC1)c1cc2ccccc2o1	inactive: -6.5%
O=C(NCC1(N2CCOCC2)CCCCC1)c1cc(=O)[nH]c2ccccc12	inactive: 5.1%
CN1CCC(Nc2cccc(F)c2)CC1	inactive: -10.1%
